For test [1], the target named is 5,6-carboxyfluorescein-labelled PARP2 (FAM-PARP2) (murine) (UniProt O88554). Put plainly: other fluorescence titration; FAM-PARP2 (40 nM) premixed with gap-DNA (400 nM), titrated with the unlabelled partner; apparent.
Test [2] has the same target. Put plainly: other fluorescence titration; labelled protein fixed at 40 nM, titrated with the unlabelled partner; 50 mM Hepes pH 8.0, 100 mM NaCl, 5 mM DTT; four-parameter fit; EC50 are apparent equilibrium dissociation constants.

The EC50 is the midpoint of the concentration-response curve. Take “DNA polymerase β (Polβ), rat, unlabelled (from UniProt P06766 1-335) (enzyme)”: the values for the concentration giving a half-maximal response (EC50) in test [1] and in test [2] were 106 nM and 185 nM, respectively.

The record behind these values is publication PMC8124814.
